Measured values as given in paper PMC6405874, “Development of a novel short 12-meric papiliocin-derived peptide that is effective against Gram-negative sepsis” (Scientific Reports, 2019).
Converted amounts (≈) assume the structure as drawn.

Columns and labels:
Details in all cases: 1% peptone, 2 × 10^6 CFU/mL, 16 h, 37 °C
B. subtilis (KCTC 3068) = system: B. subtilis (KCTC 3068)
Experimental: (§1) The antimicrobial activities of Pap12 peptides were tested against four standard Gram-negative bacteria (E. coli, Pseudomonas aeruginosa, Acinetobacter baumannii, and Salmonella typhimurium), three standard Gram-positive bacteria (Staphylococcus aureus, Bacillus subtilis, and Staphylococcus epidermidis), and five MDR bacteria (MDREC CCARM 1229, MDRPA CCARM 2002, MDRAB CCARM 12035, MDRST CCARM 8007, and MRSA CCARM 3126) using the microbroth dilution method. The relative antibacterial activities were compared based on geometric means of MICs (GM).
(§2) Escherichia coli (KCTC 1682), Pseudomonas aeruginosa (KCTC 2004), Acinetobacter baumannii (KCTC 2508), Salmonella typhimurium (KCTC 1926), Bacillus subtilis (KCTC 3068), Staphylococcus aureus (KCTC 1621), and Staphylococcus epidermidis (KCTC 1917) were purchased from the Korean Collection for Type Cultures, Korea Research Institute of Bioscience & Biotechnology (Taejon, Korea). Clinical isolates of MDR E. coli (MDREC; CCARM 1229), P. aeruginosa (MDRPA; CCARM 2002), A. baumannii (MDRAB; CCARM 12035), S. typhimurium (MDRST; CCARM 8007), and S. aureus (MDRSA; CCARM 3126) were supplied by the Culture Collection of Antibiotic-Resistant Microbe (CCARM) at Seoul Women’s University in Korea. The E. coli K1 strain RS218 (O18:K1:H7) was kindly provided by Dr. Jang-Won Yoon of Kangwon National University (Gangwon-do, Korea).
(§3) Peptides were treated with 2 × 10^6 CFU/mL bacterial suspensions in 1% peptone media for 16 h at 37 °C.

E. coli (KCTC 1682) = system: E. coli (KCTC 1682)
Experimental: as §1, §2, §3

[1] = system: P. aeruginosa (KCTC 2004)
Experimental: as §1, §2, §3

S. aureus (KCTC 1621) = system: S. aureus (KCTC 1621)
Experimental: as §1, §2, §3

[2] = system: S. typhimurium (KCTC 1926)
Experimental: as §1, §2, §3

CC[C@H](C)[C@H](NC(=O)CN)C(=O)NCC(=O)N[C@@H](C)C(=O)N[C@H](C(=O)N[C@@H](CC(C)C)C(=O)N[C@@H](CCCCN)C(=O)N[C@H](C(=O)N[C@@H](CC(C)C)C(=O)N[C@H](C(=O)N[C@H](C(=O)NCC(=O)N[C@@H](CC(C)C)C(=O)N1CCC[C@H]1C(=O)N[C@@H](C)C(=O)N[C@@H](CC(C)C)C(=O)N[C@H](C(=O)N[C@@H](CO)C(=O)N[C@@H](Cc1c[nH]c2ccccc12)C(=O)N[C@H](C(=O)N[C@@H](CCCCN)C(=O)N[C@@H](CCCNC(=N)N)C(=O)N[C@@H](CCCCN)C(=O)N[C@@H](CCCNC(=N)N)C(=O)N[C@@H](CCC(N)=O)C(=O)N[C@@H](CCC(N)=O)C(N)=O)[C@@H](C)CC)[C@@H](C)CC)[C@@H](C)O)[C@@H](C)O)C(C)C)C(C)C [Melittin, reference compound]
Minimal inhibitory concentration (MIC), B. subtilis (B. subtilis (KCTC 3068)): 2 µM (≈ 5.69 µg/mL) | Minimal inhibitory concentration (MIC), E. coli (E. coli (KCTC 1682)): 4 µM (≈ 11.4 µg/mL) | Minimal inhibitory concentration (MIC), P. aeruginosa [1]: 8 µM (≈ 22.8 µg/mL) | Minimal inhibitory concentration (MIC), S. aureus (S. aureus (KCTC 1621)): 4 µM (≈ 11.4 µg/mL) | Minimal inhibitory concentration (MIC), S. typhimurium [2]: 4 µM (≈ 11.4 µg/mL)
